Source: ChEMBL document CHEMBL1141625, “Potent, selective MCH-1 receptor antagonists” (Bioorg Med Chem Lett, 2008)

By UniProt entry, the sequences of proteins in these tests, tags left out. Where a name states a change or a piece, a line headed by the entry shows the natural chain unless it says otherwise.
UniProt P35372, whole entry, looked up: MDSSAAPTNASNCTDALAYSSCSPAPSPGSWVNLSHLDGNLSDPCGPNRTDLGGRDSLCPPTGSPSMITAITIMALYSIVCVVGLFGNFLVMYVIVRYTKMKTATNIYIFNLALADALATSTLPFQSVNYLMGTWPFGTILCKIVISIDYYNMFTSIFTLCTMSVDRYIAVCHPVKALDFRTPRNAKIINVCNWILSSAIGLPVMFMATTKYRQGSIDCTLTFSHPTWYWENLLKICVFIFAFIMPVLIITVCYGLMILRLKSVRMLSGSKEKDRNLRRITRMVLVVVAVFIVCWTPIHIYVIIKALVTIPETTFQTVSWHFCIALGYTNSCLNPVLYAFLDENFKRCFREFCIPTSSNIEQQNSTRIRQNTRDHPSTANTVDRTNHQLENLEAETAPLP
UniProt P41143, whole entry, looked up: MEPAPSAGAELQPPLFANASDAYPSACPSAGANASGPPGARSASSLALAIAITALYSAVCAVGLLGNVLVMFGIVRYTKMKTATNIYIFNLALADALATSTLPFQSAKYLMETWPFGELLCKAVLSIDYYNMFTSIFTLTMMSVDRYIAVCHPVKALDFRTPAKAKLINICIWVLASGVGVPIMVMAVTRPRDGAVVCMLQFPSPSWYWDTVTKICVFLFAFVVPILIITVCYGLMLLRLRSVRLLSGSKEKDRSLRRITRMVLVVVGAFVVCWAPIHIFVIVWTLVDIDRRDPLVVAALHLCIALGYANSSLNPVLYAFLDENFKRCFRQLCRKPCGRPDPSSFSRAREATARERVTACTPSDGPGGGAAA
UniProt P41145: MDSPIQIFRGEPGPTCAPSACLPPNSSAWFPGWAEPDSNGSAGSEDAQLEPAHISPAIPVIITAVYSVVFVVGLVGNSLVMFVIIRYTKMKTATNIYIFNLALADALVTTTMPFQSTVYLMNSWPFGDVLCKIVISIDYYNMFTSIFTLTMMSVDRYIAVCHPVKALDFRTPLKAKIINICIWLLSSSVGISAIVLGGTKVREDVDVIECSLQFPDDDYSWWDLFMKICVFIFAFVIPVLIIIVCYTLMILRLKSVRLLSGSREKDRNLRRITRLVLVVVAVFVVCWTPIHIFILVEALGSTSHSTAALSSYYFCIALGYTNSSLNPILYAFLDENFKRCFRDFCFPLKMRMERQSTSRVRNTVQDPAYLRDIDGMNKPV
UniProt P35462, whole entry, looked up: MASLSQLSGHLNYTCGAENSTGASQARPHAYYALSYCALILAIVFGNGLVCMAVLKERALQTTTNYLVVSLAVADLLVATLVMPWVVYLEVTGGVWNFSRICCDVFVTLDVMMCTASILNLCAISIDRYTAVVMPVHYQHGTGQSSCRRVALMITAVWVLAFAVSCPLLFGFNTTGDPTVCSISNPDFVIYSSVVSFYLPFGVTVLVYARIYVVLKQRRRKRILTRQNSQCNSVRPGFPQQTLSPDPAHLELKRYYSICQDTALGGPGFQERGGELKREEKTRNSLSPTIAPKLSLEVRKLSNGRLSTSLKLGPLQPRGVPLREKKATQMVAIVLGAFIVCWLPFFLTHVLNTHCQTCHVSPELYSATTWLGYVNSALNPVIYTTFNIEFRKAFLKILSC

Tests used:
[1] = molecular target: Mu-type opioid receptor (Homo sapiens) (UniProt P35372); assay: Inhibition of mu opioid receptor at 10 uM
[2] = molecular target: Delta-type opioid receptor (Homo sapiens) (UniProt P41143); assay: Inhibition of delta opioid receptor at 10 uM
[3] = molecular target: Kappa-type opioid receptor (Homo sapiens) (UniProt P41145); assay: Inhibition of kappa opioid receptor at 10 uM
[4] = molecular target: D(3) dopamine receptor (Homo sapiens) (UniProt P35462); assay: Inhibition of dopamine D3 receptor at 10 uM
[5] = molecular target: Mu-type opioid receptor (Homo sapiens) (UniProt P35372); assay: Agonist activity at mu opioid receptor

| SMILES | inhibition [1] | inhibition [2] | inhibition [3] | inhibition [4] | Activity [5] |
| --- | --- | --- | --- | --- | --- |
| CO[C@@H]1CN(CC2Cc3ccccc3C2)CC[C@H]1n1c(C)nc2cc(C)ccc21 | 76% | 15% | 76% |  |  |
| CO[C@@H]1CN(C[C@@H]2Cc3ccc(NC(=O)C(C)C)cc3C2)CC[C@H]1n1c(C)nc2cc(C)ccc21 | 45% |  | 13% | 13% |  |
| CO[C@H]1CN(CCCc2cccc(NC(=O)C3CC3)c2)CC[C@@H]1n1c(C)nc2cc(C)ccc21 | 74% |  | 38% |  |  |
| Cc1ccc2c(c1)nc(C)n2C1CCN(CCCc2cccc(NC(=O)C(C)C)c2)CC1 | 97% |  | 46% | 46% |  |
| CO[C@@H]1CN(C[C@H]2Cc3ccc(C#N)cc3C2)CC[C@H]1n1c(C(C)(C)O)nc2cc(C)ccc21 | 67% | 30% | 32% |  |  |
| CO[C@@H]1CN(C[C@H]2Cc3ccc(Br)cc3C2)CC[C@H]1n1c(C)nc2cc(C)ccc21 | 91% | 47% | 91% |  |  |
| COC(=O)Nc1ccc2c(c1)C[C@@H](CN1CC[C@@H](n3c(C)nc4cc(C)ccc43)[C@H](OC)C1)C2 | 85% |  | 55% |  |  |
| CO[C@@H]1CN(C[C@H]2Cc3ccc(Br)cc3C2)CC[C@H]1n1c(C(C)(C)O)nc2cc(C)ccc21 | 94% | 42% | 61% |  | 57% |
